Legend:
Format in all cases: biochemical
[1] = biological target: native T. cruzi proteasome (chymotrypsin-like activity, β5) (Trypanosoma cruzi, UniProt V5BU39+V5C017); test: Chymotrypsin-like activity assay (Proteasome-Glo), native T. cruzi proteasome
Method: (§1) Chymotrypsin-, trypsin-, and caspase-like activity assays were performed using a commercially available Proteasome-Glo 3-substrate system assay kit (catalog number G8532) (Promega Corporation) according to the manufacturers protocols and as previously described ([24]).
Prior to running assays, Proteasome-Glo buffer was used to reconstitute the luciferin detection reagent (containing a recombinant thermostable luciferase enzyme). The resuspended luciferin detection reagent was then mixed with Proteasome-Glo chymotrypsin-, trypsin- or caspase-like substrates (either 40 μM suc-Leu-Leu-Val-Tyr-aminoluciferin, 30 μM Z-Leu-Arg-Arg-aminoluciferin (Z is benzyloxycarbonyl) or 40 μM Z-Nle-Pro-Nle-Asp-aminoluciferin respectively (these concentrations represent 2x final assay concentrations)). These substrate mixtures were allowed to incubate at room temperature for 60 min prior to use to allow the removal of any contaminating free aminoluciferin. […]
Following the 60 min incubation of proteasome and compounds, assays were initiated with the addition of 4 μl of a substrate mix (containing substrate and the luciferin detection reagent) using an electronic multichannel pipette. […] Following a further 60 min assay incubation, luminescence was read using an EnVision 2102 Multilabel Reader (PerkinElmer, Inc) with 0.2 s per well reading time. […]

[2] = biological target: recombinant WT T. cruzi proteasome (chymotrypsin-like activity, β5) (Trypanosoma cruzi, UniProt V5BU39+V5C017); test: biochemical
Method: as §1
(§2) Prior to running assays, Proteasome-Glo buffer was used to reconstitute the luciferin detection reagent (containing a recombinant thermostable luciferase enzyme). The resuspended luciferin detection reagent was then mixed with Proteasome-Glo chymotrypsin-, trypsin- or caspase-like substrates (either 40 μM suc-Leu-Leu-Val-Tyr-aminoluciferin, 30 μM Z-Leu-Arg-Arg-aminoluciferin (Z is benzyloxycarbonyl) or 40 μM Z-Nle-Pro-Nle-Asp-aminoluciferin respectively (these concentrations represent 2x final assay concentrations)). These substrate mixtures were allowed to incubate at room temperature for 60 min prior to use to allow the removal of any contaminating free aminoluciferin.
Proteasome assays were carried out using 384-well, white, low-volume plates (catalog number 784904) (Greiner Bio-One) at room temperature (∼23 °C) in 8 μl reaction volumes. […]
(§3) A 1 in 2 dilution series of the various T. cruzi proteasome samples (native, recombinant WT, β4^R mutant, and Δβ1Δβ2 mutant) were produced in assay buffer (50 mM Tris–HCl, pH 7.5, 10 mM sucrose, 5 mM MgCl2, 1 mM DTT, 2 mM ATP, 150 mM NaCl, 1 mM EDTA, and 0.05 mg/ml bovine serum albumin). […] When kinetic read activity checks were performed (Fig. 2), proteasome final assay concentrations used were 115 μg/ml, 115 μg/ml, and 230 μg/ml native proteasome (in the chymotrypsin, trypsin, and caspase assays, respectively), and 4.1 μg/ml, 3.4 μg/ml, or 1.4 μg/ml recombinant WT proteasome (in the chymotrypsin, trypsin, and caspase assays, respectively). […]
(§4) Luminescence was read either kinetically or as an endpoint read using an EnVision 2102 Multilabel Reader (PerkinElmer, Inc) with 0.2 s per well reading time. When kinetic assays were run, luminescence was read every 5 min for 90 min. Endpoint assays were run for 60 min before luminescence was read. […]

[3] = biological target: recombinant Δβ1Δβ2 mutant T. cruzi proteasome (chymotrypsin-like activity) (Trypanosoma cruzi, UniProt V5BU39+V5C017); test: biochemical
Method: (§5) Point mutations were created in individual subunits using overlapping PCR from the original templates using Polh and Tn7L primers outside the genes and suitable internal primers to introduce selected mutations. For Δβ1Δβ2, β1 Thr 55, and β2 Thr 67 were both mutated to Ala, the β4^R mutant was produced by mutating Phe 24 and Ile 29 to Leu and Met respectively in β4 subunit.
as §1, §2
(§6) Proteasome assays were carried out using 384-well, white, low-volume plates (catalog number 784904) (Greiner Bio-One) at room temperature (∼23 °C) in 8 μl reaction volumes. When activity checks were to be run in the presence or absence of a fixed concentration of proteasome inhibitor, 80 nL of the inhibitor (at a concentration 100x the required final assay concentration), or 80 nL dimethylsulfoxide (DMSO), were dispensed into assay plates using an Echo 550 acoustic dispenser (Labcyte).
as §3, §4

[4] = biological target: recombinant β4^R mutant T. cruzi proteasome (chymotrypsin-like activity) (Trypanosoma cruzi, UniProt V5BU39+V5C017, F24L/I29M); test: biochemical
Method: as §5, §1, §2, §6, §3, §4

COC[C@H](NC(=O)c1cnc(C)s1)C(=O)N[C@@H](COC)C(=O)N[C@@H](Cc1ccccc1)C(=O)[C@@]1(C)CO1 [Oprozomib]
IC50 [1]: 89.1 nM
extent of inhibition in chymotrypsin dose-response curve, native proteasome ([1]; top of dose-response curve): partial inhibition profile
IC50 [2]: 93.3 nM
maximum % inhibition plateau, Chymotrypsin Assay, Wild-type ([2]; mean ± SD, N = 3 (N = 2 for DDD02091966), (a) mid-point plateau from biphasic curve fits): 79.0 ± 2.3%
extent of inhibition in chymotrypsin dose-response curve, recombinant WT proteasome ([2]; top of dose-response curve): partial inhibition profile
IC50 [3]: 95.5 nM
extent of inhibition in chymotrypsin dose-response curve, Δβ1Δβ2 mutant ([3]; top of dose-response curve): full inhibition
IC50 [4]: 74.1 nM
extent of inhibition in chymotrypsin dose-response curve, β4^R mutant ([4]; top of dose-response curve): partial inhibition profile
